Results as given in article PMC10020421 (2023).

Chains of the proteins cited; added tags and fusions are not shown.
UniProt P08908, whole entry: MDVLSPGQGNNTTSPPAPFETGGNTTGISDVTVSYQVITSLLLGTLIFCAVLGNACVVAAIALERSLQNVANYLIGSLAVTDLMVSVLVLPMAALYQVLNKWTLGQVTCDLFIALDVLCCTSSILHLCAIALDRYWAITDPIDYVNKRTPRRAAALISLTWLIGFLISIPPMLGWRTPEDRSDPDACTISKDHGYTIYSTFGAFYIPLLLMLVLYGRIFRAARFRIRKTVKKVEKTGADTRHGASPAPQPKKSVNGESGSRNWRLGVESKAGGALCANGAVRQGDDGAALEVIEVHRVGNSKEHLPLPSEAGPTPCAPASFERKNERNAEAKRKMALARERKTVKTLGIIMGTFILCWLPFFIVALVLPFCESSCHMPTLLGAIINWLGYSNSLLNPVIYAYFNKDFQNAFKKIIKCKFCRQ

Molecular target: myc-h5HT1a (Homo sapiens, UniProt P08908)
Experiment: CAMYEL BRET cAMP signalling assay, HEK cells expressing 5HT1a alone
Assay type: cell-based
Conditions: 5HT1a cell line, drug alone

CCCN(CCC)C1CCc2cccc(O)c2C1 (stereo not shown) [8OH-DPAT, 8-hydroxy DPAT]
Emax (% inhib of Fsk), ± SEM: 71.5 ± 3.6 % inhib of Fsk
